Laboratory results reported in patent US5486595A, “Tumor necrosis factor inhibitors” (Centecor, Inc., priority 1994, dated 1996).

Amino acid sequences for entries named in this document (tags omitted). Residues count along the entry.
UniProt P01375, 77-233 limits assumed: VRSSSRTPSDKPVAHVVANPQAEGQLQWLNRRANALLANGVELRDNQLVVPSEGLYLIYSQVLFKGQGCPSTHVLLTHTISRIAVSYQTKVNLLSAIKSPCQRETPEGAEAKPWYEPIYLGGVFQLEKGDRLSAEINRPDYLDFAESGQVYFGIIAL

Biological target: T1, human TNFα (Homo sapiens, UniProt P01375)
T1 construct: purchased Biosource, Camarillo, Calif
Test: p55 Receptor/IgG Fusion Protein Binding Assay (inhibition of TNFα capture by p55-Ig coated plate)
Details: positive control, cA2 Fab 500 ng/ml; typical value
Procedure: In order to screen compounds for their ability to block TNFα binding to the TNF p55 receptor, an assay has been designed using TNFα and a p55/IgG fusion protein in place of monovalent, non-fusion p55 TNF receptor protein. This assay was designed to identify peptides which bind to human TNFα and thereby prevent the capture of the TNFα by a microtiter plate coated with p55-Ig fusion protein. A constant concentration of human TNFα is preincubated with the test peptide and then incubated on the p55-Ig coated microtiter wells. Bound TNFα is detected using a specific antisera and an alkaline phosphatase-conjugated probe. An active peptide will reduce the amount of human TNFα bound to the well relative to control wells in which TNFα but no peptide was added. […]
To detect TNFα captured by the p55-Ig plate, all wells were incubated in succession with polyclonal rabbit anti-human TNFα (Genzyme, Boston, Mass.; 1:500 in assay buffer, 50 μl/well), biotinylated goat anti-rabbit Ig (H&L) (Vector Laboratories, Burlingame, Calif.; 1 μg/ml in assay buffer, 50 μl/well) and streptavidin-alkaline phosphatase conjugate (Pierce, Rockford, Ill.; 1 μg/ml in assay buffer, 50 μl/well). […] The optical density (OD) at 405 nm was measured on a microtiter plate reader (Molecular Devices Vmax plate reader), with the plate blank wells subtracted as background. […]

## cA2 Fab: Fab fragment of the mouse/human monoclonal anti-human TNFα antibody cA2 (positive control) [reference compound]
  inhibition of TNFα capture by the p55-Ig plate: ≥ 75%
